47 molecules from PubChem BioAssay AID1048 (The Scripps Research Institute Molecular Screening Center, 2008) can be followed below.

The structures appear in SMILES notation. The entries are a selection whose mix differs from that of the whole data set. Activity calls are given as the source filed them. Cut-off read from the data, not from the text of the source: active = TR-FRET ratio above about 2000; inactive = the rest.

The test is described as follows: TR-FRET detection interference compounds, artefact control for PPARgamma SRC-3 recruitment agonists, biochemical, TR-FRET ratio (AID 1048). The settings on record: TR-FRET artefact counter-screen, PPARgamma/SRC-3 format; at 8 µM; active compounds read high.
Turning to `c1ccc(-c2nn[nH]n2)c(-c2nn[nH]n2)c1`, the TR-FRET ratio is inactive: 1540.

Take `O=C(NC1CCS(=O)(=O)C1)NP(=S)(Oc1ccccc1)Oc1ccccc1` (configuration not stated): the TR-FRET ratio is inactive: 1610.

Take `CCNC(=S)/N=C(\N)N[N+](=O)[O-]`: the TR-FRET ratio is inactive: 1600.

As to `O=c1c2cc([N+](=O)[O-])ccc2[nH]c2c([N+](=O)[O-])cc([N+](=O)[O-])cc12`, the TR-FRET ratio was inactive: 1490.

Take `CC(=O)NC(SC(=S)N(CC(C)C)CC(C)C)C(Cl)(Cl)Cl` (configuration not stated): the TR-FRET ratio is inactive: 1480.

On to `Cc1ccc(OP(=O)(Nc2ccccn2)Oc2ccc(C)cc2)cc1`, for which the TR-FRET ratio is inactive: 1410.

For the molecule `CC(C)(C)C(=O)NC(Sc1ccccc1)C(Cl)(Cl)Cl` (configuration not stated), the TR-FRET ratio is inactive: 1630.

On to `CCOc1ccc(C2=NCC(CBr)S2)cc1` (configuration not stated), for which the TR-FRET ratio was inactive: 1880.

`CC(=O)Nc1ccc(Oc2c([N+](=O)[O-])cc([N+](=O)[O-])cc2[N+](=O)[O-])cc1`: the TR-FRET ratio was inactive: 1550.

On to `CC(C)C(=O)NC(Sc1ccccc1)C(Cl)(Cl)Cl` (configuration not stated), for which the TR-FRET ratio is inactive: 1530.

As to `O=P(Nc1ccccn1)(c1ccc(Br)cc1)c1ccc(Br)cc1`, the TR-FRET ratio was inactive: 1570.

For the molecule `C(Cc1nn[nH]n1)Cc1nn[nH]n1`, the TR-FRET ratio was inactive: 1560.

As to `CC(=O)NC(SC(=S)N(C)C)C(Cl)(Cl)Cl` (configuration not stated), the TR-FRET ratio is inactive: 1480.

On to `O=[N+]([O-])c1ncn(CCn2ncnc2[N+](=O)[O-])n1`, for which the TR-FRET ratio is inactive: 1610.

Consider `O=[N+]([O-])c1cc([N+](=O)[O-])c(CCNc2ccccc2)c([N+](=O)[O-])c1`, for which the TR-FRET ratio was inactive: 1660.

Turning to `Cc1ccc(NP(=O)(Oc2ccccc2)Oc2ccccc2)nc1`, the TR-FRET ratio was inactive: 1460.

For `COc1ccc(C2=NCC(CBr)S2)cc1` (configuration not stated), the TR-FRET ratio is inactive: 1460.

With `CN(C)C(=O)OCCc1n(C)cc[n+]1C`, the TR-FRET ratio was inactive: 1300.

In the case of `CC(C)=N/N=C(\N)N[N+](=O)[O-]`, the TR-FRET ratio is inactive: 1470.

Regarding `CCN(/C(=N/P(=O)(N1CCOCC1)N1CCOCC1)N1CCOCC1)c1ccc(OC)cc1`, the TR-FRET ratio was inactive: 1740.

Consider `Clc1ccc(Cl)c(NC2=NCC(CBr)S2)c1` (configuration not stated), for which the TR-FRET ratio was inactive: 1450.

Take `COc1ccccc1OP(=O)(Nc1ccc(C)cn1)Oc1ccccc1OC`: the TR-FRET ratio is inactive: 1590.

For `Cc1ccc(N/C(=N/P(=O)(N2CCOCC2)N2CCOCC2)N2CCOCC2)cc1`, the TR-FRET ratio is inactive: 1710.

Take `NC(=O)c1cc([N+](=O)[O-])cc([N+](=O)[O-])c1N`: the TR-FRET ratio was inactive: 1320.

For the molecule `O=C(NC(Sc1ccncn1)C(Cl)(Cl)Cl)c1ccccc1` (configuration not stated), the TR-FRET ratio was inactive: 1460.

For the molecule `Cc1cc(SC(NC(=O)c2ccc(F)cc2)C(Cl)(Cl)Cl)ncn1` (configuration not stated), the TR-FRET ratio is inactive: 1500.

As for `CCN(N=Nc1nonc1N)c1nonc1N`, the TR-FRET ratio was inactive: 1420.

Consider `Cc1ccc2nc3c(c(C)c2c1)CC(C(Cl)Cl)S3` (configuration not stated), for which the TR-FRET ratio is inactive: 1600.

Regarding `O=[N+]([O-])c1cc([N+](=O)[O-])c(-c2ccn[nH]2)s1`, the TR-FRET ratio was inactive: 1620.

For the molecule `CC(C)NC(=O)NP(=O)(Oc1ccccc1)Oc1ccccc1`, the TR-FRET ratio was inactive: 1530.

As to `COc1ccc2nc(NP(=O)(c3ccccc3)c3ccccc3)sc2c1`, the TR-FRET ratio was inactive: 1490.

In the case of `Cc1c2c(nc3ccccc13)SC(C(Cl)Cl)C2` (configuration not stated), the TR-FRET ratio was inactive: 1480.

`Cc1cc(=O)[nH]c(N[N+](=O)[O-])n1`: the TR-FRET ratio is inactive: 1400.

Consider `COc1ccc(N/C(=N/P(=O)(N2CCOCC2)N2CCOCC2)N2CCOCC2)cc1`, for which the TR-FRET ratio was inactive: 1650.

`Cc1cc(SC(NC(=O)c2ccccc2)C(Cl)(Cl)Cl)nc(C(C)C)n1` (configuration not stated): the TR-FRET ratio was inactive: 1750.

As for `Cc1cc(SC(NC=O)C(Cl)(Cl)Cl)ncn1` (configuration not stated), the TR-FRET ratio is inactive: 1520.

Regarding `O=P(Nc1ccccn1)(c1cccc2ccccc12)c1cccc2ccccc12`, the TR-FRET ratio is inactive: 1410.

`CN(C)C1(CNC(=O)c2ccc(S(C)(=O)=O)cc2)CCCCC1`: the TR-FRET ratio is inactive: 1520.

On to `CC1CCC(C(C)C)C(OP(=O)(Nc2ccccn2)c2ccccc2)C1` (configuration not stated), for which the TR-FRET ratio was inactive: 1460.

As to `CN(C(=O)Cc1ccc(Cl)c(Cl)c1)[C@@H]1CCCC[C@H]1N1CCCC1`, the TR-FRET ratio is inactive: 1490.

With `CC(C)/C=N\N=C(\N)N[N+](=O)[O-]`, the TR-FRET ratio is inactive: 1430.

As to `COc1cc(C(=O)NCC2(N3CCOCC3)CCCCC2)cc(Cl)c1OC(C)C`, the TR-FRET ratio is inactive: 1660.

For the molecule `CCOP(=O)(Nc1cccc2ccccc12)OCC`, the TR-FRET ratio was inactive: 1670.

For the molecule `COc1cc(C2NCCC3(OCCO3)C2(C)C)cc(OC)c1OC` (configuration not stated), the TR-FRET ratio was inactive: 1530.

Turning to `Cc1ccc(NCCc2c([N+](=O)[O-])cc([N+](=O)[O-])cc2[N+](=O)[O-])cc1`, the TR-FRET ratio was inactive: 1530.

As to `O=P(Nc1nccs1)(c1ccccc1)c1nc2ccccc2s1` (configuration not stated), the TR-FRET ratio was inactive: 1500.

As to `O=P(Nc1nccs1)(Oc1ccccc1)Oc1ccccc1`, the TR-FRET ratio is inactive: 1530.
